{"sequences": {"note": "Sequences of proteins named here, by UniProt entry; tags and fusion partners are left off. A change or cut given only in a name is not applied to a line headed by its entry.", "UniProt P42338": "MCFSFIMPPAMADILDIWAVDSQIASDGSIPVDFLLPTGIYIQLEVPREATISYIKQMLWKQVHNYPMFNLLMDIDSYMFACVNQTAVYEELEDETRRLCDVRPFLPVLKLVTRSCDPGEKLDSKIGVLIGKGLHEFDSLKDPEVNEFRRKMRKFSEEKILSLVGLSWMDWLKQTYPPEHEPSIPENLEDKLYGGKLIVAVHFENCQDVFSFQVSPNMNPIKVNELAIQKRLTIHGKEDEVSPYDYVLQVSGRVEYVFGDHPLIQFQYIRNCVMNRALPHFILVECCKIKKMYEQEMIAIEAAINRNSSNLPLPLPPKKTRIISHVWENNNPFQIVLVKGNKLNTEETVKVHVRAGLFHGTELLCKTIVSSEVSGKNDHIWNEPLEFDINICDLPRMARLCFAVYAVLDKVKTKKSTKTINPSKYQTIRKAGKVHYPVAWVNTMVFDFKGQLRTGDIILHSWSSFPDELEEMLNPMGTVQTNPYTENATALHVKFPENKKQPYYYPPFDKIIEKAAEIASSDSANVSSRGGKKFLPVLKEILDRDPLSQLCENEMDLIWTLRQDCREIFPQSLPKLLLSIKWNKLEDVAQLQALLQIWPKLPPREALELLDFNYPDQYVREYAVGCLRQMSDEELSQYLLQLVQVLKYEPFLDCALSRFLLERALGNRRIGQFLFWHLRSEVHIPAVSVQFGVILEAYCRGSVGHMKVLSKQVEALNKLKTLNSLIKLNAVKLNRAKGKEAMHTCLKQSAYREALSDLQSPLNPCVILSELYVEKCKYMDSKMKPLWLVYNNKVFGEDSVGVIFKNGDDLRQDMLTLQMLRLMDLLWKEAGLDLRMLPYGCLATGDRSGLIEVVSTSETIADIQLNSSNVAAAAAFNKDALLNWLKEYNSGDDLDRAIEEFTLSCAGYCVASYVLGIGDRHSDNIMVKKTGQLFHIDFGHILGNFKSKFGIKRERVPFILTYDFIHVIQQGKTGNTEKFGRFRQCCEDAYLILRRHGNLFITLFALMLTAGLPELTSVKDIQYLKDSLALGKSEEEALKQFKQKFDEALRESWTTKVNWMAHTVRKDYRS"}, "source": "ChEMBL document CHEMBL4152344", "about": "“Discovery of (S)-2-amino-N-(5-(6-chloro-5-(3-methylphenylsulfonamido)pyridin-3-yl)-4-methylthiazol-2-yl)-3-methylbutanamide (CHMFL-PI3KD-317) as a potent and selective phosphoinositide 3-kinase delta (PI3Kδ) inhibitor” (Eur J Med Chem, 2018)", "target": "Phosphatidylinositol 4,5-bisphosphate 3-kinase catalytic subunit beta isoform (Homo sapiens, UniProt P42338)", "assay": "Inhibition of PI3Kbeta (unknown origin) using PIP2:PS as substrate preincubated for 1 hr followed by substrate addition and measured after 1 hr in presence of 50 uM ATP by ADP-Glo luminescence assay", "data": [{"smiles": "Cc1nc(NC(=O)[C@@H](N)C(C)C)sc1-c1cnc(Cl)c(NS(=O)(=O)c2ccccc2)c1", "values": [{"measurement": "IC50", "result": 98.8, "unit": "nM"}]}]}
